Test results reported in US6132750A, “Particles of cross-linked proteins and polysaccharides with hydroxamic groups for chelating metals and their uses notably in cosmetics” (Coletica, priority 1998, dated 2000).

Assay: Inhibition of the Fe2+ induced radical degradation of hyaluronic acid (viscosity drop)
Conditions: concentration used 319 mg/l; hyaluronic acid 10 g/l, Fe2+ 620 ppm
Method: The chelating microspheres prepared according to I2 are used to evaluate their capacity, via the trapping of ferrous iron Fe2+, to inhibit the radical degradation of hyaluronic acid, glycosarinoglycan implied in the moisturisation of the human dermis, which is therefore a particularly important target to protect in cosmetic and dermo-pharmaceutical applications.
A 10 g/l solution of hyaluronic acid of high molecular weight (>1,000,000g/mol or Daltons) is prepared in demineralised water. To this solution is added an amount of Fe2+ of 620 ppm.
Other chelating agents which are conventionally used in cosmetics were used and compared to the chelating microspheres, for their capacity to reduce the radical degradation of hyaluronic acid. Indices of protection, expressed in % of protection, are calculated by carrying out a ratio of the drop in viscosity observed by the presence of iron Fe2+ (620 ppm) in the presence of the chelating agent studied, and the drop in viscosity observed with and without iron Fe2+.

Ferritin
Index of protection (%): 0%
